Measured values as given in PubChem BioAssay (NCI).
“And” between values parts separate entries of the source, which are not always exact repeats. Equal values may be shown once. Only a part is listed here, and it is no random draw.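 Interpretation: 100, growth as untreated; towards 0, rising growth inhibition; 0, no net growth; 0 to -100, cell death. Compounds scoring below 10 were considered active.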 The source made the active and inactive calls.

System: OVCAR-5 ovarian
Test: NCI-60 one-dose screen, 48 h (100 = growth as untreated, 0 = no growth, -100 = all killed)
Conditions: 10 µM unless noted

Compound | growth
COc1cc([N+](=O)[O-])c([N+](=O)[O-])cc1N | inactive: 98.8%
Cc1ccc(Sc2ccc([N+](=O)[O-])cc2[N+](=O)[O-])c([N+](=O)[O-])c1 | inactive: 17.6%
CC(=O)Nc1ccc([As](=O)(O)O)cc1 | inactive: 101%
ClCCN1CCc2ccccc2C1 | inactive: 101%
CCOC(=O)NC(C)(CCC(C)(NC(=O)OCC)P(=O)(O)Nc1ncccn1)P(=O)(O)Nc1ncccn1 (stereo not drawn) | inactive: 103% [100 µM]
CCSC(O)C(Cl)(Cl)Cl (stereo not drawn) | inactive: 100%
COP(=O)(OC)N1CC1c1ccccc1 (stereo not drawn) | inactive: 104%
O=P1(N(CCCl)CCCl)OCCCS1 (stereo not drawn) | inactive: 107%
CC[C@H](C)[C@@H]1NC(=O)/C(=C(\C)O)C1=O | inactive: 103%
CCN(CCCl)C(Cc1ccccc1)c1ccccc1 (stereo not drawn) | inactive: 109%
[N-]=[N+]=NS(=O)(=O)c1ccc([N+](=O)[O-])cc1 | inactive: 113%
O=P1(N(CCCl)CCCl)OCCCN1CCCl (stereo not drawn) | inactive: 101%
O=C1CSC(C(Cl)(Cl)Cl)N1c1ccc(Cl)cc1 (stereo not drawn) | inactive: 100%
ClC1(Cl)SC(Cl)(Cl)C(Cl)(Cl)C1(Cl)Cl | inactive: 109%
Nc1ccc(CCCCOc2ccccc2)cc1 | inactive: 107%
CCN(CCCl)c1ccc(CCC(=O)O)cc1 | inactive: 104%
O=C(OC1CN2CCC1CC2)c1ccccc1 (stereo not drawn) | inactive: 96.7%
Nc1nnc(N)nn1 | inactive: 105%
COP(OC)c1ccc(C)cc1 | inactive: 114%

Compound | growth
CCOP(=O)(NC1CCCCC1)OCC | inactive: 102%
CC(Cl)CN(CC(C)Cl)C(=O)OCC(N)C(=O)O (stereo not drawn) | inactive: 109% and inactive: 94.2%
O=S1(=O)CC(Sc2ccccc2)[C@@H](Cl)C1 (stereo partly drawn) | inactive: 121%
O=C(CCC(=O)Oc1c(Cl)cc([N+](=O)[O-])cc1[N+](=O)[O-])Oc1c(Cl)cc([N+](=O)[O-])cc1[N+](=O)[O-] | inactive: 109%
COc1cccc([As]=O)c1 (stereo not drawn) | active: -86.6%
c1cc(-c2nn[nH]n2)ccc1-c1nn[nH]n1 | inactive: 108%
CCN(CCCl)Cc1ccccc1 | inactive: 105%
CCCCOP(=O)(OCCCC)N1CCCC1C(=O)O (stereo not drawn) | inactive: 107%
CCN(CCCl)C1c2ccccc2-c2ccccc21 | inactive: 98.7%
CCOP(=O)(CCBr)OCC | inactive: 106% and inactive: 97%
ClCCNCc1ccccc1 | inactive: 109%
O=[As]c1ccc(S(=O)(=O)Nc2ccccc2)cc1 (stereo not drawn) | inactive: 10.8%
CCc1cc(O)c([N+](=O)[O-])c(C)c1[N+](=O)[O-] | inactive: 104%
Clc1ccc(P(Cl)Cl)cc1 | inactive: 88.9%
O=[As](O)(c1ccc(O)cc1)c1ccccc1O | inactive: 99.6%
CCCCCCC(C)OP(O)OC(C)CCCCCC (stereo not drawn) | inactive: 117%
NC(=O)Nc1ccc([As](=O)(O)O)cc1 | inactive: 109%
O=[N+]([O-])c1cc(Cl)cc([N+](=O)[O-])c1O | inactive: 107%
ClP1Nc2cncnc2N1 (stereo not drawn) | inactive: 112%
